Tests used:
[1] = system: learned helpless C57BL/6J mice; experiment: Sensitivity to foot-shock; assay type: in vivo, mouse; conditions: days 13 and 22
[2] = system: learned helpless C57BL/6J mice; experiment: Open field motor activity; assay type: in vivo, mouse; conditions: day 12; 2 or 5 mg/kg ‘8090, 5 mg/kg ‘8219; 40 mg/kg Ibo, 10 mg/kg Flx

ibogaine was tested, and the reactivity to foot-shock [1] was “do not affect reactivity to foot-shock” and the “locomotion in the open field” value [2] was “No locomotor differences were found”.

Reference: article PMC10306110 (Cell, 2023)
